Data published in article PMC6033896, “Discovery of Mcl-1 inhibitors from integrated high throughput and virtual screening” (Scientific Reports, 2018).

The chains behind the UniProt entries cited, without tags or fusion partners. Where a name states a change or a piece, a line headed by the entry shows the natural chain unless it says otherwise. Residues count along the entry.
UniProt Q07820, 171-323 limits assumed: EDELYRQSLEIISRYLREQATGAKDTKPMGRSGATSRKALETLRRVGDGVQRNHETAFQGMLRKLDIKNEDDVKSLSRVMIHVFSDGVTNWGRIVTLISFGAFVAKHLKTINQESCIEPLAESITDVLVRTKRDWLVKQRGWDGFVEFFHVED
UniProt Q07820, 171-323 R263A limits assumed: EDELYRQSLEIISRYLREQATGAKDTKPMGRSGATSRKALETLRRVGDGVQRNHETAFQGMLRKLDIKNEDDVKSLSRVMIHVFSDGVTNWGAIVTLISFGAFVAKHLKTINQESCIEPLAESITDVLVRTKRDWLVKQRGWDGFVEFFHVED
UniProt Q16548, 1-151 limits assumed: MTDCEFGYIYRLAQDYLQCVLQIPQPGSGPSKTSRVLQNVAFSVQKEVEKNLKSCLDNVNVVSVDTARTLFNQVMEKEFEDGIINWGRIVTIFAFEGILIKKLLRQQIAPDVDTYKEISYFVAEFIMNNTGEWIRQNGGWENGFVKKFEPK

Columns and labels:
mutant Mcl-1 R263A = mutant Mcl-1 R263A (Homo sapiens, UniProt Q07820, R263A); assay: BLI-based direct binding assay; settings: compared with wild-type Mcl-1
Bfl-1 = Bfl-1 (Homo sapiens, UniProt Q16548); assay: FP-based competitive binding assay with FAM-Bid; settings: for IC50: read-out: Binding to Bfl-1 FP IC50, Bfl-1; for binding to Bfl-1: tested up to 100 µM
Mcl-1/Noxa interaction = settings: read-out: AID 1417 IC50; Dose Response Confirmation for Mcl-1/Noxa Interaction Inhibitors; ref PubChem BioAssay AID 1417; cited from earlier work
Mcl-1 protein [1] = target: T1, Mcl-1 protein (Homo sapiens, UniProt Q07820); assay: SPR-based solution competitive binding assay, immobilized biotin-labelled Bim BH3 peptide; settings: read-out: SPR IC50; Mcl-1 20 nM; competition with immobilized Bim BH3 peptide
Mcl-1 protein [2] = target: T1, Mcl-1 protein; assay: FP-based competitive binding assay with fluorescent labelled Bid BH3 peptide; settings: read-out: FP IC50, competition with fluorescent Bid probe 2 nM, 20 nM Mcl-1 for purchased compounds, 10 nM for synthesized library
Mcl-1/Bid interaction = settings: read-out: AID 1418 IC50; Dose Response Confirmation for Mcl-1/Bid Interaction Inhibitors; ref PubChem BioAssay AID 1418; cited from earlier work
[3] = test system: Bax/Bak double knockout (DKO) MEFs; assay: MEF cell death, propidium iodide flow cytometry; settings: 100 µM of hits (15: 10, 20, 30 µM), 15-hour treatment
wild-type MEFs = assay: MEF cell death, propidium iodide flow cytometry; settings: 100 µM of hits (15: 10, 20, 30 µM), 15-hour treatment

Q: What does the source list for `Cc1nn(-c2cccc(Cl)c2)c2nc(-c3ccco3)cc(C(=O)O)c12`?
A: binding to mutant R263A Mcl-1 (BLI) (mutant Mcl-1 R263A): no appreciable binding; binding to Bfl-1 compared with Mcl-1 (Bfl-1; FP): lower binding to Bfl-1 in comparison to Mcl-1

Q: Which IC50 (Mcl-1/Noxa interaction) does the source give for `COc1ccc(C(=O)Nc2cccc(C=C(CCC(=O)O)c3nc4ccccc4s3)c2)cc1` here?
A: 4.3 µM

Q: What about the IC50 (Mcl-1 protein [1]) of the same compound?
A: 20 µM

Q: And the IC50 (Mcl-1 protein [2])?
A: 39 µM

Q: What about the IC50 (Bfl-1) of the same compound?
A: > 100 µM

Q: For `CC(C)CCOc1ccc(C=C2CCn3c2nc2cc(C(=O)O)ccc2c3=O)cc1`, which IC50 (Mcl-1/Noxa interaction) is on record?
A: 7.2 µM

Q: With `O=C(C=Cc1cccs1)Nc1scc(-c2ccccc2)c1C(=O)O` as the compound, how does the IC50 (Mcl-1 protein [1]) read?
A: 14.9 µM

Q: And the IC50 (Mcl-1 protein [2])?
A: 23.7 µM

Q: And the IC50 (Mcl-1/Bid interaction)?
A: 500 nM

Q: Which IC50 (Mcl-1/Noxa interaction) does the source give for `CC(=O)c1sc2nc(CSc3nnnn3-c3ccccc3)[nH]c(=O)c2c1C` here?
A: 1.7 µM

Q: And the IC50 (Mcl-1 protein [1])?
A: 10.7 µM

Q: Which results are given for `CSc1ccc(C=NNc2cccc(C(=O)O)c2)cc1`?
A: IC50 (Mcl-1/Noxa interaction): 2.2 µM; IC50 (Mcl-1 protein [1]): 1.7 µM; IC50 (Mcl-1 protein [2]): 1.9 µM; binding to mutant R263A Mcl-1 (BLI) (mutant Mcl-1 R263A): no appreciable binding

Q: With `COCCN=c1scc(-c2cccs2)n1NC=C1C=CC(=O)C(O)=C1O` as the compound, how does the IC50 (Mcl-1/Noxa interaction) read?
A: 5.2 µM

Q: And the IC50 (Mcl-1 protein [1])?
A: 6.5 µM

Q: And the IC50 (Mcl-1 protein [2])?
A: 2.7 µM

Q: What about the “cell death induction in Bax/Bak DKO MEFs, screening of hits” value [3] of the same compound?
A: without significant cell death induction

Q: And the “cell death induction in wild-type MEFs, screening of hits” value (wild-type MEFs)?
A: inducing cell death

Q: And the IC50 (Bfl-1)?
A: > 100 µM

Q: What about the “binding to Bfl-1” value (Bfl-1) of the same compound?
A: didn’t show binding

Q: For `O=C(O)c1cccc(Cn2c(Cl)c(C=NNC(=O)c3cc4ccccc4cc3O)sc2=O)c1`, which IC50 (Mcl-1/Noxa interaction) is on record?
A: 3.7 µM

Q: And the IC50 (Mcl-1 protein [1])?
A: 2.8 µM

Q: And the IC50 (Mcl-1 protein [2])?
A: 9.4 µM

Q: And the IC50 (Bfl-1)?
A: > 100 µM

Q: What about the “binding to Bfl-1” value (Bfl-1) of the same compound?
A: didn’t show binding
